What was measured:
[1] = Drug metabolism in rat hepatocytes assessed as N-(3-(7-chloro-[1,2,4]triazolo[1,5-a]pyridin-6-yl)-5-hydroxypentyl)-2-methylthiazole-5-sulfonamide formation; assay type: ADME, cell-based, Hepatocyte
[2] = Unbound Cmax in male Sprague-Dawley rat at 3 mg/kg, po in 10% Tween 80 in water formulation administered as single dose and measured upto 24 hrs by dose escalation based LC-MS/MS analysis; assay type: ADME, organism-based; conditions: in vivo
[3] = Unbound AUCinfinity in male Sprague-Dawley rat at 30 mg/kg, po in 10% Tween 80 in water formulation administered as single dose and measured upto 24 hrs by dose escalation based LC-MS/MS analysis; assay type: ADME, organism-based; conditions: in vivo
[4] = Unbound Cmax in male Sprague-Dawley rat at 30 mg/kg, po in 10% Tween 80 in water formulation administered as single dose and measured upto 24 hrs by dose escalation based LC-MS/MS analysis; assay type: ADME, organism-based; conditions: in vivo
[5] = Metabolic stability in rat hepatocytes assessed as parent compound remaining; assay type: ADME, cell-based, Hepatocyte
[6] = Drug metabolism in dog hepatocytes assessed as N-(3-(7-chloro-[1,2,4]triazolo[1,5-a]pyridin-6-yl)-5-hydroxypentyl)-2-methylthiazole-5-sulfonamide formation; assay type: ADME, cell-based, Canis lupus familiaris, Hepatocyte
Cytochrome P450 3A4 = Cytochrome P450 3A4 (Homo sapiens, UniProt P08684); assay: Time dependent inhibition of CYP3A4 (unknown origin) at 10 uM; assay type: ADME
[7] = Drug metabolism in human hepatocytes assessed as N-(3-(7-chloro-[1,2,4]triazolo[1,5-a]pyridin-6-yl)-5-hydroxypentyl)-2-methylthiazole-5-sulfonamide formation; assay type: ADME, cell-based, Hepatocyte
[8] = Unbound AUCinfinity in male Sprague-Dawley rat at 3 mg/kg, po in 10% Tween 80 in water formulation administered as single dose and measured upto 24 hrs by dose escalation based LC-MS/MS analysis; assay type: ADME, organism-based; conditions: in vivo
[9] = Unbound plasma concentration in male Sprague-Dawley rat at 10 mg/kg, po administered as single dose and measured after 1 hr by LC-MS/MS analysis; assay type: ADME, organism-based; conditions: in vivo
[10] = Metabolic stability in monkey hepatocytes assessed as parent compound remaining; assay type: ADME, cell-based, Macaca mulatta, Hepatocyte; conditions: rhesus monkey
[11] = Unbound brain concentration in male Sprague-Dawley rat at 10 mg/kg, po administered as single dose and measured after 2 hrs by LC-MS/MS analysis; assay type: ADME, organism-based; conditions: in vivo
[12] = Unbound AUCinfinity in male Sprague-Dawley rat at 100 mg/kg, po in 10% Tween 80 in water formulation administered as single dose and measured upto 24 hrs by dose escalation based LC-MS/MS analysis; assay type: ADME, organism-based; conditions: in vivo
[13] = Unbound brain concentration in male Sprague-Dawley rat at 10 mg/kg, po administered as single dose and measured after 1 hr by LC-MS/MS analysis; assay type: ADME, organism-based; conditions: in vivo

Protein sequences, listed by entry. Tags and fused reporters are not part of them.
UniProt P08684, whole entry: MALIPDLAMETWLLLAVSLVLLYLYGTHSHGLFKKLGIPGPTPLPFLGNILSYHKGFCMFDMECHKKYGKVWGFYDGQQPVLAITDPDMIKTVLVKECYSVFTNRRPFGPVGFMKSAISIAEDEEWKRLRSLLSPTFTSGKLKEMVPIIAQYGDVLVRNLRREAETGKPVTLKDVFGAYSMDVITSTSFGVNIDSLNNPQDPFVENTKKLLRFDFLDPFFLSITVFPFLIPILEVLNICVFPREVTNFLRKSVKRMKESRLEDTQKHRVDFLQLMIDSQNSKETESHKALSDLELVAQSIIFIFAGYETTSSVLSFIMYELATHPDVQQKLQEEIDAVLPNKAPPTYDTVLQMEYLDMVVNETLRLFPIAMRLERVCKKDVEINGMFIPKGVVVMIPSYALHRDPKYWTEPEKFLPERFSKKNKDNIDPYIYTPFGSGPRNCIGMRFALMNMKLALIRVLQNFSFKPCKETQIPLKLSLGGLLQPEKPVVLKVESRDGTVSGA

Drug metabolism [1] | fCmax [2] [µM] | fAUC [3] [µM·h] | fCmax [4] [µM] | Stability [5] [%] | Drug metabolism [6] | TDI (Cytochrome P450 3A4) | Drug metabolism [7] | fAUC [8] [µM·h] | Cp(f) [9] [nM] | Stability [10] [%] | Drug uptake(free) [11] [nM] | fAUC [12] [µM·h] | Drug uptake(free) [13] [nM] | Structure (SMILES)
Metabolite_Notdetected | 51.7 | 1.796 | 171 | 49.6 | Metabolite_Notdetected | Not Active | Metabolite_Notdetected | 0.22 | 160 | 81.1 | 169 | 2.94 | 153 | Cc1ncc(S(=O)(=O)N2CCC(c3cn4ncnc4cc3Cl)CC2)s1
 |  |  |  |  |  | Not Active |  |  |  |  |  |  |  | [2H]C1([2H])CC(c2cn3ncnc3cc2Cl)CC([2H])([2H])N1S(=O)(=O)c1cnc(C)o1
 |  |  |  |  |  | Not Active |  |  |  |  |  |  |  | Cc1ncc(S(=O)(=O)N2CCC(c3cn4ncnc4cc3Cl)CC2)o1
